From PubChem BioAssay AID602396 (The Scripps Research Institute Molecular Screening Center, 2012) come the findings set out here.

Protein sequences, listed by entry. Tags and fused reporters are not part of them.
UniProt O00482, whole entry: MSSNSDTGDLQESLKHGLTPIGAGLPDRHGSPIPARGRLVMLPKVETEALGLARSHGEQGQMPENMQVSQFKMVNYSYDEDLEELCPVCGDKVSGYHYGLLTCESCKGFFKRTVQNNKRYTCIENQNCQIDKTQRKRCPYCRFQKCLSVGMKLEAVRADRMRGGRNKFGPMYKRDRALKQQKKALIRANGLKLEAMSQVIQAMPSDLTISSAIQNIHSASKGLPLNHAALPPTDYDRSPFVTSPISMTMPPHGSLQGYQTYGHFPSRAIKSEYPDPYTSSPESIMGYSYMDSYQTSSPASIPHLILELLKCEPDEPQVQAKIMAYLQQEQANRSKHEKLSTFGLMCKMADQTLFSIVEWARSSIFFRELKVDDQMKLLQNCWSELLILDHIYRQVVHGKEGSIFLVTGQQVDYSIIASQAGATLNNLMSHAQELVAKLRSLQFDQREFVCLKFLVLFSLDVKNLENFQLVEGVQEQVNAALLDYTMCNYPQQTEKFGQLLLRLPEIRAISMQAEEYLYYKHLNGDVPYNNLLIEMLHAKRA

By inhibition is commonly meant the drop in the measured response relative to a control, in per cent.

The list shows a part of the results, in another mix than the full data. The source made the active and inactive calls.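 Rule for the calls: active = inhibition above the mean inhibition of all tested compounds plus 3 SD (cut at about 73% in these data); inactive = the rest.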

This assay deals with Nuclear receptor subfamily 5 group A member 2 (Homo sapiens) (UniProt O00482). As to the kind of experiment: reduction of NR5A2-driven StAR reporter activity – cell-based, luminescence, HEK293T, StAR-luciferase reporter, primary screen (AID 602396).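 Note: 0% = DMSO wells and 100% = reporter-only cells lacking LRH-1.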 The settings on record: LRH-1 transfected, 24 h, at 3.6 µM, hits give high values. A general note: Reporter assays use an easily measured gene product as a stand-in for the process of interest.
`CCCOc1ccc(C(=O)NCC2(N(C)C)CCCCC2)cc1`: the inhibition was inactive: 3.28%. On to `O=c1[nH]c2ccccc2n1C1CCN(C(c2cc3ccccc3o2)c2nnnn2C2CCCC2)CC1` (stereo not given), for which the inhibition is inactive: -25.5%. The value for `O=C(O)C1(Nc2ccccc2)CCN(Cc2ccccc2)CC1` was inactive: 4.08%; that for `NN(c1ccccc1)C1CCN(CCc2ccccc2)CC1` was inactive: -7.94%; that for `CC(C)(C)OC(=O)N1CCC(Nc2ccccc2)CC1` was inactive: -9.98%. The value for `CN1CCC(Nc2ccc(F)c(Cl)c2)CC1` was inactive: 4.12%; that for `CCOc1ncccc1C(=O)NCC1(N2CCOCC2)CCCCC1` was inactive: 5.16%. As to `CN1CCC(Nc2ccc(Cl)cc2)CC1`, the inhibition is inactive: 7.86%. In the case of `CCC(CO)(C(=O)OC1CN2CCC1CC2)c1ccccc1` (stereo not given), the inhibition was inactive: -11.5%. Turning to `COc1cccc(C(c2nnnn2C2CCCC2)N2CCC(n3c(=O)[nH]c4ccccc43)CC2)c1OC` (stereo not given), the inhibition is inactive: 15.1%. The value for `COc1cc(OC)cc(C(=O)NCC2(N3CCOCC3)CCCCC2)c1` was inactive: -6.38%; that for `COc1cccc(C(=O)N(c2cc(C)cc(C)c2)C2CCN(C(=O)OC(C)(C)C)CC2)c1` was inactive: -20.1%. Under `Cc1ccc(NC2(C#N)CCN(Cc3ccccc3)CC2)cc1` stands inactive: -9.27%.

On to `Fc1ccccc1NC1CCN(Cc2ccccc2)CC1`, for which the inhibition was inactive: -15.8%. With `Cc1ccc(C(=O)NCC2(N3CCCCC3)CCCCC2)o1`, the inhibition was inactive: -26.1%. For the compound `O=c1[nH]c2ccccc2n1C1CCN(C(c2ccnc3ccccc23)c2nnnn2C2CCCCC2)CC1` (stereo not given), the inhibition is inactive: -3.39%. For `COc1cc(OC)cc(C(=O)NCC2(N3CCCCC3)CCCCC2)c1`, the inhibition was inactive: -11.3%. On to `CCC(c1nnnn1C1CCCCC1)N1CCC(n2c(=O)[nH]c3ccccc32)CC1` (stereo not given), for which the inhibition was inactive: -0.44%. Regarding `CC(=O)N(c1ccccc1)C1CCNCC1`, the inhibition is inactive: 21.6%. Under `COc1cccc(C(c2nnnn2C2CCCCC2)N2CCC(n3c(=O)[nH]c4ccccc43)CC2)c1OC` (stereo not given) stands inactive: -9.12%; under `Cn1c(=O)[nH]cc(N(CCCl)CCCl)c1=O`, inactive: 7.13%. Consider `CN(C)c1ccc(C(=O)NCC2(N3CCCCC3)CCCCC2)cc1`, for which the inhibition was inactive: -40.4%. The value for `O=C(NCC1(N2CCCCC2)CCCCC1)c1ccco1` was inactive: 1.59%; that for `CC(C)(C)n1nnnc1C(c1ccnc2ccccc12)N1CCC(n2c(=O)[nH]c3ccccc32)CC1` (stereo not given) was inactive: -7.7%. `COc1ccc(C(c2nnnn2C2CCCCC2)N2CCC(n3c(=O)[nH]c4ccccc43)CC2)cc1` (stereo not given): the inhibition was inactive: -2.01%.

As for `CCN1CCC(Nc2cccc(F)c2)CC1`, the inhibition was inactive: -4.05%. Consider `Cc1ccccc1NC1(C#N)CCN(Cc2ccccc2)CC1`, for which the inhibition was inactive: -3.51%. Take `CC(C)(C)OC(=O)N1CCC(N(C(=O)c2ccccc2)c2ccc(Cl)cc2)CC1`: the inhibition is inactive: 5.23%.

Take `N#Cc1ccc(C(=O)NCC2(N3CCCCC3)CCCCC2)cc1`: the inhibition is inactive: -29%. As for `CC(C)(C)n1nnnc1C(c1cccc2ccccc12)N1CCC(n2c(=O)[nH]c3ccccc32)CC1` (stereo not given), the inhibition is inactive: 20.4%.

As for `O=c1[nH]c2ccccc2n1C1CCN(C(c2ccccc2)c2nnnn2C2CCCC2)CC1` (stereo not given), the inhibition was inactive: 10.4%. Regarding `CCCN1CCC(Nc2cc(OC)cc(OC)c2)CC1`, the inhibition was inactive: -6.23%. As to `Cc1cc(N(CCCl)CCCl)ccc1C=O`, the inhibition was inactive: 21.4%. Under `c1ccc(CN2CCC(Nc3ccccc3)CC2)cc1` stands inactive: -3.27%; under `CN(C)C1(CNC(=O)c2cccc(C#N)c2)CCCCC1`, inactive: 14.3%; under `O=c1[nH]c2ccccc2n1C1CCN(C(c2ccnc3ccccc23)c2nnnn2C2CCCC2)CC1` (stereo not given), inactive: -10.3%. The value for `COc1ccc(C(=O)NCC2(N3CCOCC3)CCCCC2)cc1OC` was inactive: -14.8%. Consider `O=c1[nH]c2ccccc2n1C1CCN(C(c2cccs2)c2nnnn2C2CCCCC2)CC1` (stereo not given), for which the inhibition is inactive: 13.7%.

In the case of `O=C(NCC1(N2CCOCC2)CCCCC1)c1cc(Br)ccc1Cl`, the inhibition is inactive: -21%. As to `COc1cc(C(=O)NCC2(N3CCOCC3)CCCCC2)cc(OC)c1C`, the inhibition is inactive: 8.78%. The value for `CCCCn1nnnc1C(c1ccccc1)N1CCC(n2c(=O)[nH]c3ccccc32)CC1` (stereo not given) was inactive: -3.23%; that for `CCCCn1nnnc1C(c1cccc(OC)c1OC)N1CCC(n2c(=O)[nH]c3ccccc32)CC1` (stereo not given) was inactive: 9.69%. For `O=c1[nH]c2ccccc2n1C1CCN(C(c2cccs2)c2nnnn2C2CCCC2)CC1` (stereo not given), the inhibition is inactive: -5.1%. As for `O=C(OC1CN2CCC1CC2)C1c2ccccc2C=Cc2ccccc21` (stereo not given), the inhibition was inactive: 13.8%. For `N/C(=N\O)c1c(N)no[n+]1[O-]`, the inhibition is inactive: -9.13%.

Consider `COc1cccc(C(c2nnnn2C(C)(C)C)N2CCC(n3c(=O)[nH]c4ccccc43)CC2)c1OC` (stereo not given), for which the inhibition was inactive: -9.19%. In the case of `CCOC(=O)N1CCC(Nc2ccc(C)cc2)CC1`, the inhibition was inactive: -9.96%. For `CCCCn1nnnc1C(c1ccnc2ccccc12)N1CCC(n2c(=O)[nH]c3ccccc32)CC1` (stereo not given), the inhibition is inactive: -23.5%. As for `CCC(c1nnnn1C(C)(C)C)N1CCC(n2c(=O)[nH]c3ccccc32)CC1` (stereo not given), the inhibition is inactive: 16.3%. For the compound `O=C(NCC1(N2CCOCC2)CCCCC1)c1cc(F)c(F)cc1Cl`, the inhibition is inactive: -5.78%. Consider `COc1cc(OC)c(C(=O)NCC2(N(C)C)CCCCC2)cc1OC`, for which the inhibition is inactive: 19.3%. Under `CN(C)c1cccc(C(=O)NCC2(N3CCCCC3)CCCCC2)c1` stands inactive: -11.9%; under `COc1ccc(CN(CCCl)CCCl)cc1Cl`, inactive: -6.68%.

As to `CC(C)c1ccc(NC2CCN(C(=O)OC(C)(C)C)CC2)cc1`, the inhibition is inactive: -56%. Consider `CCCCn1nnnc1C(c1ccccc1OC(F)(F)F)N1CCC(n2c(=O)[nH]c3ccccc32)CC1` (stereo not given), for which the inhibition is inactive: 13.3%. In the case of `CCCOc1ccc(C(=O)NCC2(N(C)C)CCCCC2)cc1OC`, the inhibition was inactive: 1.16%.

As to `Cc1ccc(C(=O)NCC2(N(C)C)CCCCC2)o1`, the inhibition was inactive: -0.57%. Under `COc1ccc(C(c2nnnn2C2CCCC2)N2CCC(n3c(=O)[nH]c4ccccc43)CC2)cc1` (stereo not given) stands inactive: -3.95%. Regarding `O=C(NCC1(N2CCCCC2)CCCCC1)c1cncc(Br)c1`, the inhibition is inactive: -14.2%. `CN1CCC(Nc2cccc(F)c2)CC1`: the inhibition was inactive: 18%.
